# Permeability data for macrocyclic peptides

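Lipid, pH, incubation time, direction and concentration are not recorded in the data file. Other peptides of the study may be missing here. Entries at the database's floor value (log10 P of -10) are not listed.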

PAMPA measures passive passage through an artificial lipid membrane.
Permeability is in 10^-6 cm/s, converted from the database's log10 values; higher is more permeable.

For CCCN1CC(=O)N[C@H](CC(C)C)C(=O)N(C)[C@@H](CC(C)C)C(=O)N2CCC[C@H]2C(=O)N(C)[C@@H](CC(C)C)C(=O)N[C@@H](Cc2ccccc2)C1=O the data give PAMPA 17 × 10^-6 cm/s. For CC(C)C[C@H]1NC(=O)[C@H]2CCCN2C(=O)[C@@H](CC(C)C)NC(=O)CN(Cc2ccccc2)C(=O)[C@H](C)N(C)C(=O)[C@H]2CCCN2C(=O)[C@H](Cc2ccccc2)NC1=O the data give PAMPA 1.4 × 10^-6 cm/s. Listed for CC(C)C[C@H]1C(=O)N2CCC[C@H]2C(=O)N(Cc2ccccc2)CC(=O)N[C@@H](Cc2ccccc2)C(=O)N2CCC[C@H]2C(=O)N(C)[C@@H](C)C(=O)N(Cc2ccccc2)CC(=O)N1C: PAMPA 2 × 10^-6 cm/s. CCCN1CC(=O)N[C@H](CC(C)C)C(=O)N[C@@H](Cc2ccccc2)CC(=O)N2CCC[C@H]2C(=O)N(Cc2ccccc2)CC(=O)N[C@@H](Cc2ccccc2)C(=O)N2CCC[C@@H]2C1=O has PAMPA 0.6 × 10^-6 cm/s. CC(C)C[C@@H]1NC(=O)[C@H]2CCCN2C(=O)CN(Cc2ccccc2)C(=O)CN(Cc2ccccc2)C(=O)C[C@H](Cc2ccccc2)NC(=O)[C@H]2CCCN2C(=O)[C@H](Cc2ccccc2)NC1=O is reported with PAMPA 0.16 × 10^-6 cm/s. CCCN1CC(=O)N(C)[C@@H](CC(C)C)C(=O)N[C@@H](Cc2ccccc2)CC(=O)N2CCC[C@@H]2C(=O)N[C@H](CC(C)C)C(=O)N[C@@H](Cc2ccccc2)C1=O has PAMPA 4.5 × 10^-6 cm/s. The entry for CC(C)C[C@H]1C(=O)N[C@@H](Cc2ccccc2)CC(=O)N2CCC[C@H]2C(=O)N(Cc2ccccc2)CC(=O)N[C@@H](Cc2ccccc2)C(=O)N[C@@H](Cc2ccccc2)CC(=O)N1C lists PAMPA 2.9 × 10^-6 cm/s. For C[C@@H]1C(=O)N(Cc2ccccc2)CC(=O)N[C@@H](Cc2ccccc2)CC(=O)N2CCC[C@H]2C(=O)N(Cc2ccccc2)CC(=O)N[C@@H](Cc2ccccc2)C(=O)N2CCC[C@H]2C(=O)N1C the data give PAMPA 0.38 × 10^-6 cm/s.

Listed for CC(C)C[C@H]1NC(=O)[C@@H](C)NC(=O)[C@H]2CCCN2C(=O)[C@H](Cc2ccccc2)NC(=O)CN(Cc2ccccc2)C(=O)[C@H]2CCCN2C(=O)C[C@H](Cc2ccccc2)NC1=O: PAMPA 0.36 × 10^-6 cm/s. For CC(C)C[C@@H]1C(=O)N2CCC[C@@H]2C(=O)N(C)[C@H](CC(C)C)C(=O)N[C@@H](Cc2ccccc2)C(=O)N2CCC[C@@H]2C(=O)N[C@H](C)C(=O)N(Cc2ccccc2)CC(=O)N1C the data give PAMPA 0.71 × 10^-6 cm/s. Listed for CC(C)C[C@H]1C(=O)N2CCC[C@H]2C(=O)N(C)[C@@H](CC(C)C)C(=O)N[C@@H](Cc2ccccc2)C(=O)N(C)[C@H](C)C(=O)N(Cc2ccccc2)CC(=O)N1C: PAMPA 14 × 10^-6 cm/s. Listed for CC(C)C[C@H]1C(=O)N2CCC[C@H]2C(=O)N(Cc2ccccc2)CC(=O)N[C@@H](Cc2ccccc2)C(=O)N2CCC[C@H]2C(=O)N(C)[C@H](C)C(=O)N(Cc2ccccc2)CC(=O)N1C: PAMPA 1.7 × 10^-6 cm/s. CC(C)C[C@@H]1C(=O)N[C@@H](Cc2ccccc2)CC(=O)N2CCC[C@H]2C(=O)N(Cc2ccccc2)CC(=O)N[C@@H](Cc2ccccc2)C(=O)N2CCC[C@H]2C(=O)N[C@@H](C)C(=O)N1C is reported with PAMPA 1.6 × 10^-6 cm/s. The entry for CC(C)C[C@H]1NC(=O)[C@H]2CCCN2C(=O)CN(Cc2ccccc2)C(=O)CN(Cc2ccccc2)C(=O)[C@@H](C)NC(=O)[C@H]2CCCN2C(=O)[C@H](Cc2ccccc2)NC1=O lists PAMPA 0.48 × 10^-6 cm/s. Listed for CC(C)C[C@@H]1NC(=O)[C@@H]2CCCN2C(=O)[C@@H](CC(C)C)NC(=O)CN(Cc2ccccc2)C(=O)[C@H](C)N(C)C(=O)[C@H]2CCCN2C(=O)[C@H](Cc2ccccc2)NC1=O: PAMPA 0.44 × 10^-6 cm/s. For CC(C)C[C@H]1NC(=O)[C@@H]2CCCN2C(=O)[C@@H](CC(C)C)NC(=O)CN(Cc2ccccc2)C(=O)[C@H](C)N(C)C(=O)[C@@H]2CCCN2C(=O)[C@H](Cc2ccccc2)NC1=O the data give PAMPA 1.6 × 10^-6 cm/s.

Listed for CC(C)C[C@@H]1C(=O)N[C@@H](Cc2ccccc2)C(=O)N2CCC[C@@H]2C(=O)N[C@@H](C)C(=O)N(Cc2ccccc2)CC(=O)N(Cc2ccccc2)CC(=O)N2CCC[C@H]2C(=O)N1C: PAMPA 0.5 × 10^-6 cm/s.

Values of Townsend et al. 2020, doi:10.26434/chemrxiv.13335941.v1, as listed in CycPeptMPDB.